What was measured:
[1] = tested on: RKO cells; experiment: Cell viability assay (MTT), RKO; settings: read-out: RKO EC50 (72 h)
[2] = tested on: p21; experiment: P21 ELISA assay in SJSA1 cells; format: cell-based, Human; settings: for p21 0.3 uM: 0.3 uM peptide; for p21 1 uM: 1 uM peptide; for p21 3 uM: 3 uM peptide; for p21 10 uM: 10 uM peptide; for p21 30 uM: 30 uM peptide

CC(=O)N[C@@H](CC(C)C)C(=O)N[C@H](C(=O)N[C@@H](Cc1ccccc1)C(=O)N[C@]1(C)CCCCCCC=CCCC[C@@](C)(C(=O)N[C@@H](CO)C(=O)N[C@@H](CC(C)C)C(=O)N[C@@H](C)C(N)=O)NC(=O)[C@H](CC(C)C)NC(=O)[C@H](CCC(N)=O)NC(=O)[C@H](C)NC(=O)[C@H](Cc2c[nH]c3ccccc23)NC(=O)[C@H](Cc2ccc(O)cc2)NC(=O)[C@H](C)NC1=O)[C@@H](C)O (single isomer, unassigned) [compound 118]
EC50 [1]: < 5 µM

CC(=O)N[C@@H](CC(C)C)C(=O)N[C@H](C(=O)N[C@@H](Cc1ccccc1)C(=O)N[C@]1(C)CCCCCCC=CCCC[C@@](C)(C(=O)N[C@@H](CO)C(=O)N[C@@H](Cc2c[nH]c3ccccc23)C(=O)N[C@@H](C)C(N)=O)NC(=O)[C@H](CC(C)C)NC(=O)[C@H](CCC(N)=O)NC(=O)[C@H](C)NC(=O)[C@H](Cc2c[nH]c3ccccc23)NC(=O)[C@H](Cc2ccc(O)cc2)NC(=O)[C@H](C)NC1=O)[C@@H](C)O (single isomer, unassigned) [compound 120]
EC50 [1]: < 5 µM

CC(=O)N[C@@H](CC(C)C)C(=O)N[C@H](C(=O)N[C@@H](Cc1ccccc1)C(=O)N[C@]1(C)CCCCCCC=CCCC[C@@](C)(C(=O)N[C@@H](CO)C(=O)N[C@@H](C)C(=O)N[C@@H](C)C(N)=O)NC(=O)[C@H](CC2CCCCC2)NC(=O)[C@H](CCC(N)=O)NC(=O)[C@H](C)NC(=O)[C@H](Cc2c[nH]c3ccccc23)NC(=O)[C@H](Cc2ccc(O)cc2)NC(=O)[C@H](CCC(=O)O)NC1=O)[C@@H](C)O (single isomer, unassigned) [compound 148]
EC50 [1]: 15 to 30 µM

CC(=O)N[C@@H](CC(C)C)C(=O)N[C@H](C(=O)N[C@@H](Cc1ccccc1)C(=O)N[C@]1(C)CCCCCCC=CCCC[C@@](C)(C(=O)N[C@@H](CO)C(=O)N[C@@H](C)C(=O)N[C@@H](C)C(N)=O)NC(=O)[C@H](C2CCCC2)NC(=O)[C@H](CCC(N)=O)NC(=O)[C@H](C)NC(=O)[C@H](Cc2c[nH]c3ccccc23)NC(=O)[C@H](Cc2ccc(O)cc2)NC(=O)[C@H](CCC(=O)O)NC1=O)[C@@H](C)O (single isomer, unassigned) [compound 150]
EC50 [1]: 15 to 30 µM

CC[C@H](C)[C@H](NC(=O)[C@H](C)NC(=O)[C@H](C)NC(=O)[C@]1(C)CCCC=CCCCCCC[C@@](C)(NC(=O)[C@H](Cc2ccccc2)NC(=O)[C@@H](NC(=O)[C@H](CCC(=O)O)NC(C)=O)[C@@H](C)O)C(=O)N[C@@H](CCC(=O)O)C(=O)N[C@@H](Cc2c[nH]cn2)C(=O)N[C@@H](Cc2c[nH]c3ccccc23)C(=O)N[C@@H](C)C(=O)N[C@@H](CCC(N)=O)C(=O)N[C@@H](CC(C)C)C(=O)N1)C(=O)N[C@H](C)C(N)=O (single isomer, unassigned) [compound 175]
EC50 [1]: > 30 µM

CC(=O)N[C@@H](CC(C)C)C(=O)N[C@H](C(=O)N[C@@H](Cc1ccccc1)C(=O)N[C@]1(C)CCCCCCC=CCCC[C@@](C)(C(=O)N[C@@H](C)C(=O)N[C@@H](C)C(=O)N[C@@H](Cc2ccccc2)C(=O)N[C@H](C)C(N)=O)NC(=O)[C@H](CC(C)C)NC(=O)[C@H](CCC(N)=O)NC(=O)[C@H](C)NC(=O)[C@H](Cc2c[nH]c3ccccc23)NC(=O)[C@H](Cc2ccc(O)cc2)NC(=O)[C@H](CCC(=O)O)NC1=O)[C@@H](C)O (single isomer, unassigned) [compound 219]
EC50 [1]: 5 to 15 µM

CC(=O)N[C@@H](CC(C)C)C(=O)N[C@H](C(=O)N[C@@H](Cc1ccccc1)C(=O)N[C@]1(C)CCCCCCC=CCCC[C@@](C)(C(=O)N[C@@H](C)C(=O)N[C@@H](C)C(=O)N[C@@H](C)C(=O)N[C@H](C)C(N)=O)NC(=O)[C@H](CC(C)C)NC(=O)[C@H](CCC(N)=O)NC(=O)[C@H](C)NC(=O)[C@H](Cc2c[nH]c3ccccc23)NC(=O)[C@H](Cc2ccc(O)cc2)NC(=O)[C@H](C)NC1=O)[C@@H](C)O (single isomer, unassigned) [compound 230]
p21 0.3 uM [2]: 245.5 | p21 1 uM [2]: 392 | p21 3 uM [2]: 882 | p21 10 uM [2]: 1549 | p21 30 uM [2]: 2086

CC(=O)N[C@@H](CC(C)C)C(=O)N[C@H](C(=O)N[C@@H](Cc1ccccc1)C(=O)N[C@]1(C)CCCCCCC=CCCC[C@@](C)(C(=O)N[C@@H](C)C(=O)N[C@@H](C)C(=O)N[C@@H](C)C(=O)N[C@@H](C)C(=O)N[C@@H](C)C(=O)N[C@H](C)C(N)=O)NC(=O)[C@H](CC(C)C)NC(=O)[C@H](CCC(N)=O)NC(=O)[C@H](C)NC(=O)[C@H](Cc2c[nH]c3cc(Cl)ccc23)NC(=O)[C@H](Cc2ccc(O)cc2)NC(=O)[C@H](C)NC1=O)[C@@H](C)O (single isomer, unassigned) [compound 338]
EC50 [1]: < 5 µM

CC(=O)N[C@@H](CC(C)C)C(=O)N[C@H](C(=O)N[C@@H](Cc1ccccc1)C(=O)N[C@]1(C)CCCCCCC=CCCC[C@@](C)(C(=O)N[C@@H](CO)C(=O)N[C@@H](C)C(=O)N[C@@H](C)C(=O)N[C@H](C)C(N)=O)NC(=O)[C@H](CC2CCC2)NC(=O)[C@H](CCC(N)=O)NC(=O)[C@H](C)NC(=O)[C@H](Cc2c[nH]c3ccccc23)NC(=O)[C@H](Cc2ccc(O)cc2)NC(=O)[C@H](CCC(=O)O)NC1=O)[C@@H](C)O (single isomer, unassigned) [compound 353]
EC50 [1]: 15 to 30 µM

CCCC[C@H](NC(=O)[C@H](C)NC(=O)[C@H](C)NC(=O)[C@]1(C)CCCC=CCCCCCC[C@@](C)(NC(=O)[C@H](Cc2ccccc2)NC(=O)[C@@H](NC(=O)[C@H](CC(C)C)NC(C)=O)[C@@H](C)O)C(=O)N[C@@H](C)C(=O)N[C@@H](Cc2ccc(O)cc2)C(=O)N(C)[C@@H](Cc2c[nH]c3ccccc23)C(=O)N[C@@H](C)C(=O)N[C@@H](CCC(N)=O)C(=O)N[C@@H](CC(C)C)C(=O)N1)C(=O)N[C@@H](C)C(N)=O (single isomer, unassigned) [compound 386]
EC50 [1]: < 5 µM

CCCC[C@H](NC(=O)[C@H](C)NC(=O)[C@H](C)NC(=O)[C@]1(C)CCCC=CCCCCCC[C@@](C)(NC(=O)[C@H](Cc2ccccc2)NC(=O)[C@@H](NC(=O)[C@H](CC(C)C)NC(C)=O)[C@@H](C)O)C(=O)N[C@@H](C)C(=O)N[C@@H](Cc2ccc(O)cc2)C(=O)N[C@@H](Cc2c[nH]c3ccccc23)C(=O)NC(C)(C)C(=O)N[C@@H](CCC(N)=O)C(=O)N[C@@H](CC(C)C)C(=O)N1)C(=O)N[C@@H](C)C(N)=O (single isomer, unassigned) [compound 390]
EC50 [1]: < 5 µM

CCCC[C@H](NC(=O)[C@H](C)NC(=O)[C@H](Cc1cc(=O)oc2cc(OC)c(OC)cc12)NC(=O)[C@]1(C)CCCC=CCCCCCC[C@@](C)(NC(=O)[C@H](Cc2ccccc2)NC(=O)[C@@H](NC(=O)[C@H](CC(C)C)NC(C)=O)[C@@H](C)O)C(=O)N[C@@H](C)C(=O)N[C@@H](Cc2ccc(O)cc2)C(=O)N[C@@H](Cc2c[nH]c3ccccc23)C(=O)N[C@@H](C)C(=O)N[C@@H](CCC(N)=O)C(=O)N[C@@H](CC(C)C)C(=O)N1)C(=O)N[C@@H](C)C(N)=O (single isomer, unassigned) [compound 416]
p21 0.3 uM [2]: 33.74 | p21 1 uM [2]: 39.82 | p21 3 uM [2]: 56.57 | p21 10 uM [2]: 86.78 | p21 30 uM [2]: 1275.28

CCCC[C@H](NC(=O)[C@H](Cc1cc(=O)oc2cc(OC)c(OC)cc12)NC(=O)[C@H](C)NC(=O)[C@]1(C)CCCC=CCCCCCC[C@@](C)(NC(=O)[C@H](Cc2ccccc2)NC(=O)[C@@H](NC(=O)[C@H](CC(C)C)NC(C)=O)[C@@H](C)O)C(=O)N[C@@H](C)C(=O)N[C@@H](Cc2ccc(O)cc2)C(=O)N[C@@H](Cc2c[nH]c3ccccc23)C(=O)N[C@@H](C)C(=O)N[C@@H](CCC(N)=O)C(=O)N[C@@H](CC(C)C)C(=O)N1)C(=O)N[C@@H](C)C(N)=O (single isomer, unassigned) [compound 419]
p21 0.3 uM [2]: 58.28 | p21 1 uM [2]: 97.36 | p21 3 uM [2]: 221.65 | p21 10 uM [2]: 1520.69 | p21 30 uM [2]: 2187.94

CC[C@H](C)[C@H](NC(=O)[C@H](C)NC(=O)[C@H](C)NC(=O)[C@]1(C)CCCC=CCCCCCC[C@@](C)(NC(=O)[C@H](Cc2ccccc2)NC(=O)[C@@H](NC(=O)[C@H](CC(C)C)NC(=O)CN(C)C)[C@@H](C)O)C(=O)N[C@@H](CCC(=O)O)C(=O)N[C@@H](Cc2ccc(C(=O)O)cc2)C(=O)N[C@@H](Cc2c[nH]c3ccccc23)C(=O)N[C@@H](C)C(=O)N[C@@H](CCC(N)=O)C(=O)N[C@@H](CC2CCC2)C(=O)N1)C(=O)N[C@H](C)C(N)=O (single isomer, unassigned) [compound 440]
EC50 [1]: 15 to 30 µM

CCCC[C@H](NC(=O)[C@H](C)NC(=O)[C@H](C)NC(=O)[C@]1(C)CCCC=CCCCCCC[C@@](C)(NC(=O)[C@H](Cc2ccccc2)NC(=O)[C@@H](NC(=O)[C@H](CC(C)C)NC(=O)CN(C)C)[C@@H](C)O)C(=O)N[C@@H](C)C(=O)N[C@@H](Cc2ccc(O)cc2)C(=O)N[C@@H](Cc2c[nH]c3ccccc23)C(=O)N[C@@H](C)C(=O)N[C@@H](CCC(N)=O)C(=O)N[C@@H](CC(C)C)C(=O)N1)C(=O)N[C@@H](C)C(N)=O (single isomer, unassigned) [compound 442]
EC50 [1]: < 5 µM

CSCC[C@H](NC(=O)[C@H](C)NC(=O)[C@H](CO)NC(=O)[C@]1(C)CCCC=CCCCCCC[C@@](C)(NC(=O)[C@H](Cc2ccccc2)NC(=O)[C@@H](NC(=O)[C@H](CC(C)C)NC(C)=O)[C@@H](C)O)C(=O)N[C@@H](C)C(=O)N[C@@H](Cc2ccc(O)cc2)C(=O)N[C@@H](Cc2c[nH]c3ccccc23)C(=O)N[C@@H](C)C(=O)N[C@@H](CCC(N)=O)C(=O)N[C@@H](CC(C)C)C(=O)N1)C(N)=O [compound 5]
EC50 [1]: < 5 µM

CC(=O)N[C@@H](CC(C)C)C(=O)N[C@H](C(=O)N[C@@H](Cc1ccccc1)C(=O)N[C@]1(C)CCCCCCC=CCCC[C@@](C)(C(=O)N[C@@H](CO)C(=O)N[C@@H](C)C(=O)N[C@@H](C)C(N)=O)NC(=O)[C@H](CC2CCC2)NC(=O)[C@H](CCC(N)=O)NC(=O)[C@H](C)NC(=O)[C@H](Cc2ccc3ccccc3c2)NC(=O)[C@H](Cc2ccc(O)cc2)NC(=O)[C@H](CCC(=O)O)NC1=O)[C@@H](C)O [compound 254]
p21 0.3 uM [2]: 118 | p21 1 uM [2]: 896 | p21 3 uM [2]: 1774 | p21 10 uM [2]: 3042 | p21 30 uM [2]: 3035

Source: patent publication US8927500B2, “Peptidomimetic macrocycles” (Aileron Therapeutics, Inc., priority 2012, dated 2015)
